# Data reported in PubChem BioAssay AID461 (SRMLSC, 2006).
# Sequences of proteins named here, by UniProt entry; tags and fusion partners are left off.
# UniProt P04626, whole entry: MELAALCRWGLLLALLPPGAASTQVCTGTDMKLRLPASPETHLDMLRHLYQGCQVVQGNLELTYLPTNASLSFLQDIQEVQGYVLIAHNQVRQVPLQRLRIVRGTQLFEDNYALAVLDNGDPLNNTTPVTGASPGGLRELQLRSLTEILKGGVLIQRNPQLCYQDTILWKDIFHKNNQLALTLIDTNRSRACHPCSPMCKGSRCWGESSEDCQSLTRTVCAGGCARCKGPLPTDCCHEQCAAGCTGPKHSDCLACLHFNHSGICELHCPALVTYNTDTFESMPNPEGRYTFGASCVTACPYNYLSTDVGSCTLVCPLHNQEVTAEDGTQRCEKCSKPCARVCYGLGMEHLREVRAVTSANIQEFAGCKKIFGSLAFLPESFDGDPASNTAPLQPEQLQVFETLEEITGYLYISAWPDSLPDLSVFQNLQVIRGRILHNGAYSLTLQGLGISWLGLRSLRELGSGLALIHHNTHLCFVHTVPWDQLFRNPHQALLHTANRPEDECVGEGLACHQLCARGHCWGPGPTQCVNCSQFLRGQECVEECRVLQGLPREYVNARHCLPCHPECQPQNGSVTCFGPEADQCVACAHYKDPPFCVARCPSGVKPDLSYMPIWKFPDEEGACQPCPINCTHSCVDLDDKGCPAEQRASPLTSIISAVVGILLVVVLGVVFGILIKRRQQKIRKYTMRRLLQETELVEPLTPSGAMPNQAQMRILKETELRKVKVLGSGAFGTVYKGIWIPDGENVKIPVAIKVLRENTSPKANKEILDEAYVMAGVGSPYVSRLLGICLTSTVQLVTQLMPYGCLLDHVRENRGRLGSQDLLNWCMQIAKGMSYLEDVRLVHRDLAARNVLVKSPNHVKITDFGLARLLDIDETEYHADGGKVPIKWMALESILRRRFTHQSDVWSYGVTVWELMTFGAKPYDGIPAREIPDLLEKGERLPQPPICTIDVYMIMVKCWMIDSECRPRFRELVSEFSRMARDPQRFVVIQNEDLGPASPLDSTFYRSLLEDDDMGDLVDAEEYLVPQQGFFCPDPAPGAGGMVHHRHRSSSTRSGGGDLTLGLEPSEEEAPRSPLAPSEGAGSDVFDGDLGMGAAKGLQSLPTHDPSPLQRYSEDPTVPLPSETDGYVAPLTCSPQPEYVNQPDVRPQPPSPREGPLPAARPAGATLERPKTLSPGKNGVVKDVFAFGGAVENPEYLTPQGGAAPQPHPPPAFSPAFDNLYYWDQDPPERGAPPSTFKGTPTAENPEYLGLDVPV
# Only a part is listed here, and it is no random draw. Calls of active or inactive are those of the source.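 The calls were made as follows: active = Her2 level under about 52% in both replicate screens, with viability over 70% of control (limit read from the data); inconclusive = Her2 under the limit in one screen only, or viability under 70%; inactive = Her2 level above the set limit.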
# Molecular target: Receptor tyrosine-protein kinase erbB-2 (Homo sapiens) (UniProt P04626)
# Experiment: reducers of endogenous Her2 protein level, primary screen, SKBR3 breast tumor cells, AlphaScreen, ATP viability (AID 461);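 also: lower value means less Her2 protein in the cells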
# Conditions: 18-24 h, at 10 µM, hits give low values
row,SMILES,Her2 level
1,Fc1ccccc1NC1CCN(Cc2ccccc2)CC1,inactive: 91%
